Measurements published in patent US20260226037A1, “MICROTUBULE TARGETING AGENTS” (ARIEL SCIENTIFIC INNOVATIONS LTD., priority 2022, published 2026).

Tested on: MM1.R cells
Assay: XTT cytotoxicity, MM1.R
Type: cell-based
Conditions: MM1.R / MM1.S
Description: The cytotoxic activity of the novel family was evaluated against various tumor cells, including myeloma cells, acute lymphoblastic leukemia cells, acute monocytic leukemia cells, chronic myelogenous leukemia cells, pancreatic cancer cells, breast cancer cells, uterine sarcoma cells, cervix adenocarcinoma cells, ovary cancer cells, melanoma cells, osteosarcoma cells, prostate cancer cells, lung cancer cells, neuroblastoma cells and colorectal adenocarcinoma cells by XTT assay.

| Compound | IC50 ratio between resistant and non-resistant cells |
| --- | --- |
| CCCCCOC(=O)c1[nH]c2c(c1C)C(=O)CC(c1ccco1)C2 (centres unmarked) [SMS001, reference compound] | 1.095 |
| CCCCCOC(=O)c1[nH]c2c(c1C)C(=O)CC(c1ncco1)C2 (centres unmarked) [SMS077, pentyl 3-methyl-6-(oxazol-2-yl)-4-oxo-4,5,6,7-tetrahydro-1H-indole-2-carboxylate] | 1.091 |
